Results on 1 substance are retold here after patent US20080293647A1, “Combined Use Of Vitamin D Derivatives And Anti-Proliferative Agents For Treating Bladder Cancer” (priority 2004, published 2008).

This test concerns human bladder cancer cell lines. Description: Combination of calcitriol with chemotherapeutic agents, bladder cancer cell line proliferation, combination index method. It is filed as cell-based. To be noted: agent combined with calcitriol; combination index method (CalcuSyn). How it is done:
The following bladder cancer cell lines were used: […] Proliferation was measured after an additional 96 h using CyQuant cell proliferation assay kit. Drug interactions (as shown in FIG. 1) were evaluated by the median-effect/isobologram method using CalcuSyn software (Biosoft, Cambridge, UK). Combination Indices (CI) were calculated using the non-constant ratio combination design, determining synergism or antagonism for each data point. […] Recommended symbols are used for describing synergism or antagonism in drug combination studies analyzed with the combination index method (according to Chou. and Talalay, Adv. Enzyme Regul. 22 (1984) 27-55): […]

With mitomycin-c, the “Synergism or antagonism on bladder cancer cell proliferation in combination with calcitriol” value is “does not result in any additive or synergistic effect”.
